Earlier results, collected in patent publication US9547007B2, “Methods and compositions for in-vivo enzyme capture” (The Trustees of the University of Pennslyvania, priority 2009, dated 2017).

Conditions: at 37° C.; internalization into cells

## Nδ13-biotinyl-transportan
  time at which the maximal intracellular contraction is reached: about 20 min
